Source: patent US12616204B2, “Use of cationic porphyrins as selective herbicide” (UNIVERSITE DE LIMOGES, priority 2021, dated 2026)

Assay: Photostability/photodegradation test in water (Soret band, UV-visible spectrometry)
Details: weedkiller solution in water

Substance: zinc tetra(N-methylpyridyl)porphyrin tetrachloride [Zn-TMPyP]
- half-life in water when exposed to light: two
